Experimental data reported in patent US5952008A, “Processes for preparing compositions for inhalation” (AB Astra, priority 1993, dated 1999).

Tested on: CaCo-2 epithelial cell monolayer
Test: In vitro CaCo-2 epithelial cell monolayer transport assay
Assay type: in vitro ADME
Details: 16 mM sodium caprate
Description: A standard in vitro assay utilizing an epithelial cell line, CaCo-2 (available through the American Type Culture Collection (ATCC), Rockville, Md., USA), has been developed to assess the ability of various enhancer compounds to promote transport of markers across an epithelial cell monolayer, as a model for the epithelial cell layer which functions in the lung to separate the alveolus from the pulmonary blood supply.
In this assay, the enhancer and polypeptide or other marker are dissolved in aqueous solution at various proportions and/or concentrations, and applied to the apical side of the cell monolayer. After 60 min incubation at 37° C. and 95% RH (relative humidity), the amount of the marker on the basolateral side of the cells is determined, e.g., by use of a radioactively labelled marker.

Substance: insulin
- Amount of polypeptide passed across the monolayer compared to absence of enhancer, in words: doubled
